SMILES strings stand for the structures. Like-named read-outs stand apart in the source and are kept apart here.

Protein sequences, listed by entry. Tags and fused reporters are not part of them. Residues count along the entry.
UniProt P27732, whole entry: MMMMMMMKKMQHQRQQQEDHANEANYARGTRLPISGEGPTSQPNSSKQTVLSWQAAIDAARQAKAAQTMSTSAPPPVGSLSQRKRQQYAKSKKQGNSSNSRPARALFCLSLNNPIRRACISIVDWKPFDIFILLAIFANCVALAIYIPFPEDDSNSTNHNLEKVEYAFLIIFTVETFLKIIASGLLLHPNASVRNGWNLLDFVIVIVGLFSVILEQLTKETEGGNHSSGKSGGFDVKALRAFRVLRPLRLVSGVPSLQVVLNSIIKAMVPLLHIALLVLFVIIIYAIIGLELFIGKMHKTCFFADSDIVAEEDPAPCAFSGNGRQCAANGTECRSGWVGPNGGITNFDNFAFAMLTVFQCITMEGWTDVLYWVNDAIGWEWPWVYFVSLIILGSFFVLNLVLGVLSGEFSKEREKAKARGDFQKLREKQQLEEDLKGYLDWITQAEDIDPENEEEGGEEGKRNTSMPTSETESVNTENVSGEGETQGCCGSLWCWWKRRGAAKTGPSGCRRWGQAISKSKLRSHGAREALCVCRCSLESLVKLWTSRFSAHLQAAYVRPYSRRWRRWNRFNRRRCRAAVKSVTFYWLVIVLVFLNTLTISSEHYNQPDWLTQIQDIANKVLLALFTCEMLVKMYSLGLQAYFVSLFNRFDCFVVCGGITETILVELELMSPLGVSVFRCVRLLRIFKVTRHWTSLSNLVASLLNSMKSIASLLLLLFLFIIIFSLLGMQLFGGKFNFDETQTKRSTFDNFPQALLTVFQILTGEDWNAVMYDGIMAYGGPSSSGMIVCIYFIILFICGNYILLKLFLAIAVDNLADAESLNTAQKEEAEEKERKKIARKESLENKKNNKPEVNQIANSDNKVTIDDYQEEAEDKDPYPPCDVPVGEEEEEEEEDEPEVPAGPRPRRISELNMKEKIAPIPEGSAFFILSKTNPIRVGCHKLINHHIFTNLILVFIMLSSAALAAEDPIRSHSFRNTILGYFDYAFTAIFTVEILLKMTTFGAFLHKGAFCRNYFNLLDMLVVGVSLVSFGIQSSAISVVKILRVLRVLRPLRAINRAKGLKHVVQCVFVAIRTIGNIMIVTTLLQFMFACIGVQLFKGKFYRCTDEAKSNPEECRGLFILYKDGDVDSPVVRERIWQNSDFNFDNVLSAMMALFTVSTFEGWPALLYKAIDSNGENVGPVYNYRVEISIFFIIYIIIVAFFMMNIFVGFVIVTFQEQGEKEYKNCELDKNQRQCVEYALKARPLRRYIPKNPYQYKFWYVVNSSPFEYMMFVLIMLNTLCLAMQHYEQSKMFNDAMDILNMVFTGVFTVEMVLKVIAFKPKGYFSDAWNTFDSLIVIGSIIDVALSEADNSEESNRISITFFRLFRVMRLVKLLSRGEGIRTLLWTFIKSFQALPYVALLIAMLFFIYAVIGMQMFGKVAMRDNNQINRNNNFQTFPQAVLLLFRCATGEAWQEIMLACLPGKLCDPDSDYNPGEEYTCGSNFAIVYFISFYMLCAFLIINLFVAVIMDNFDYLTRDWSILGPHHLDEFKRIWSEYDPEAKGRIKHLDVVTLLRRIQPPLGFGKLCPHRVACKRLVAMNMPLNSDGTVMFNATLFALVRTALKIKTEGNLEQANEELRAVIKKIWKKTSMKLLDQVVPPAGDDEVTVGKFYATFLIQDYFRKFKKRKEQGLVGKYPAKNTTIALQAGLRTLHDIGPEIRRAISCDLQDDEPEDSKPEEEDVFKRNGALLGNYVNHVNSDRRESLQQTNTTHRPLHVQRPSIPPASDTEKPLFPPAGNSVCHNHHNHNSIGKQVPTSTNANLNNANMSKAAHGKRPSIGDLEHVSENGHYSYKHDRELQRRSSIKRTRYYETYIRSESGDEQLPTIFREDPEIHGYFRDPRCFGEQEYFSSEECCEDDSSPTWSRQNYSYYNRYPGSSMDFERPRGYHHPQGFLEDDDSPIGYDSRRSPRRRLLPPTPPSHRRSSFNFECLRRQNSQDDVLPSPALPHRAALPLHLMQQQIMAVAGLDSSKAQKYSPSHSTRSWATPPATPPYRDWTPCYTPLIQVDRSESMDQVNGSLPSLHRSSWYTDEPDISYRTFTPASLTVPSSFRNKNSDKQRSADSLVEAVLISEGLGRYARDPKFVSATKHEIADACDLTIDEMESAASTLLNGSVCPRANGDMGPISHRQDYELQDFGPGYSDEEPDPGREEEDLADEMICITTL
UniProt P15381, whole entry: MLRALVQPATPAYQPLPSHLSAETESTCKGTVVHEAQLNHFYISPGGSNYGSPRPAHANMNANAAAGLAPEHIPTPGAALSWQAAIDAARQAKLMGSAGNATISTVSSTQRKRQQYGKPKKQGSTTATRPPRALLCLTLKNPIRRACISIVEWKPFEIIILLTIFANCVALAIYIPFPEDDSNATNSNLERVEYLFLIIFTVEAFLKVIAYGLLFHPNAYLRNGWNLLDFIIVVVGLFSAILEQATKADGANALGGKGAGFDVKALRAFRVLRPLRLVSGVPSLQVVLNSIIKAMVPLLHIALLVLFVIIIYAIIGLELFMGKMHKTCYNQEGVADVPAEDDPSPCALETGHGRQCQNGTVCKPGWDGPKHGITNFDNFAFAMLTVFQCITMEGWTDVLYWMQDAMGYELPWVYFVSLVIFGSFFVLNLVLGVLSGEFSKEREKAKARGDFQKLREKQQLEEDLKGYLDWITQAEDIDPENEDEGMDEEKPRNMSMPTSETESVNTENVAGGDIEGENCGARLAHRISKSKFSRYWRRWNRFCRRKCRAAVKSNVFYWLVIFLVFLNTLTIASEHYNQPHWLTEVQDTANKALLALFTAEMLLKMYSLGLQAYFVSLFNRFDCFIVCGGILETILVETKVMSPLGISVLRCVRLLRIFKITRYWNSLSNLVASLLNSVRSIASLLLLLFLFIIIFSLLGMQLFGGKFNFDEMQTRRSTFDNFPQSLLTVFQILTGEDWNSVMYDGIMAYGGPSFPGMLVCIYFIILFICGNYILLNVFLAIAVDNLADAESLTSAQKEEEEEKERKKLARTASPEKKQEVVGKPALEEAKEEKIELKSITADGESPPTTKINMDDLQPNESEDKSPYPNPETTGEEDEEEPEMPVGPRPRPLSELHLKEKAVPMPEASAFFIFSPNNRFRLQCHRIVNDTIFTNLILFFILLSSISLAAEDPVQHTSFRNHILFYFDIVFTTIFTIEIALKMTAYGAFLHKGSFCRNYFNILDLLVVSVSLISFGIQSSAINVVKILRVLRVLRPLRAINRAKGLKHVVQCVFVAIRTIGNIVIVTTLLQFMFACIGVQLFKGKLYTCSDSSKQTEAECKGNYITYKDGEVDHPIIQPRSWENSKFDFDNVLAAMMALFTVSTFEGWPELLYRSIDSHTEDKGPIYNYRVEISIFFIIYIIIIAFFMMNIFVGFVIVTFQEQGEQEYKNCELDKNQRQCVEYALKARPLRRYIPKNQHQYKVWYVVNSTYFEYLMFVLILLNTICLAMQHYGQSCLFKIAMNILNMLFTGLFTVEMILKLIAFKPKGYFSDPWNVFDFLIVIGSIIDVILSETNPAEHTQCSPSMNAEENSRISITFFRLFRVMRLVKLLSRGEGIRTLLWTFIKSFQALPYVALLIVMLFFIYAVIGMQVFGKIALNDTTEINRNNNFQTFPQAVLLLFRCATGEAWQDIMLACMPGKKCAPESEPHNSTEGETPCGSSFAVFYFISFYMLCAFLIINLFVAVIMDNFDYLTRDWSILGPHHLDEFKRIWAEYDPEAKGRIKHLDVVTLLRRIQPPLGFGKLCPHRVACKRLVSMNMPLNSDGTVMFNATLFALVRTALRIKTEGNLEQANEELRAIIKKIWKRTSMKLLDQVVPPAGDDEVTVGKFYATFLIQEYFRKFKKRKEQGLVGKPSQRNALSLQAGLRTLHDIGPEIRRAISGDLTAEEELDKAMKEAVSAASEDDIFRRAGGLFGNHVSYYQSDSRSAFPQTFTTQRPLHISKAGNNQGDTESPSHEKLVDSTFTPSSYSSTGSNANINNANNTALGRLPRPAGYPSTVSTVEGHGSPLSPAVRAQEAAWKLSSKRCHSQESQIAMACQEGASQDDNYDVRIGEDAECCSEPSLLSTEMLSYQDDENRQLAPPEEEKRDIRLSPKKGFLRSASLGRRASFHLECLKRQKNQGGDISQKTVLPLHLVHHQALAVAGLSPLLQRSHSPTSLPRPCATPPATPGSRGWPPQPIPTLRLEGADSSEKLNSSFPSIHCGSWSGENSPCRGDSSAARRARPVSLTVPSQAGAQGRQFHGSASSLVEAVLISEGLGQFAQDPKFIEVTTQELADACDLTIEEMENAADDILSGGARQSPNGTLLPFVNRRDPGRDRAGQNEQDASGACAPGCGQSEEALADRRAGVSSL
UniProt P54284, whole entry partner: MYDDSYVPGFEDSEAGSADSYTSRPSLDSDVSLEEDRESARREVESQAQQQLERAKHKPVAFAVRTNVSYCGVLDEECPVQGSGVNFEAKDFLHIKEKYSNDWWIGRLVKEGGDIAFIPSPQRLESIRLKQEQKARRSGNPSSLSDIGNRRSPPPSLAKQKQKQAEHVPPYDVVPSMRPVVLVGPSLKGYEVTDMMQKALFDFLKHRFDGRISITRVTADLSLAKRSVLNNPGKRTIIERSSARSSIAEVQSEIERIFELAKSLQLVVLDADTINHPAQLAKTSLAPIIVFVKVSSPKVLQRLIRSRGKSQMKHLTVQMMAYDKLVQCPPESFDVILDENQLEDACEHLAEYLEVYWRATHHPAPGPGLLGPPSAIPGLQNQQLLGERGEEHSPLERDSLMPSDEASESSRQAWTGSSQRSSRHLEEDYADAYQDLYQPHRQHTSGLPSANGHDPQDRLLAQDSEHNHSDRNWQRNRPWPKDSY
UniProt P54289, 25-956 partner limits assumed: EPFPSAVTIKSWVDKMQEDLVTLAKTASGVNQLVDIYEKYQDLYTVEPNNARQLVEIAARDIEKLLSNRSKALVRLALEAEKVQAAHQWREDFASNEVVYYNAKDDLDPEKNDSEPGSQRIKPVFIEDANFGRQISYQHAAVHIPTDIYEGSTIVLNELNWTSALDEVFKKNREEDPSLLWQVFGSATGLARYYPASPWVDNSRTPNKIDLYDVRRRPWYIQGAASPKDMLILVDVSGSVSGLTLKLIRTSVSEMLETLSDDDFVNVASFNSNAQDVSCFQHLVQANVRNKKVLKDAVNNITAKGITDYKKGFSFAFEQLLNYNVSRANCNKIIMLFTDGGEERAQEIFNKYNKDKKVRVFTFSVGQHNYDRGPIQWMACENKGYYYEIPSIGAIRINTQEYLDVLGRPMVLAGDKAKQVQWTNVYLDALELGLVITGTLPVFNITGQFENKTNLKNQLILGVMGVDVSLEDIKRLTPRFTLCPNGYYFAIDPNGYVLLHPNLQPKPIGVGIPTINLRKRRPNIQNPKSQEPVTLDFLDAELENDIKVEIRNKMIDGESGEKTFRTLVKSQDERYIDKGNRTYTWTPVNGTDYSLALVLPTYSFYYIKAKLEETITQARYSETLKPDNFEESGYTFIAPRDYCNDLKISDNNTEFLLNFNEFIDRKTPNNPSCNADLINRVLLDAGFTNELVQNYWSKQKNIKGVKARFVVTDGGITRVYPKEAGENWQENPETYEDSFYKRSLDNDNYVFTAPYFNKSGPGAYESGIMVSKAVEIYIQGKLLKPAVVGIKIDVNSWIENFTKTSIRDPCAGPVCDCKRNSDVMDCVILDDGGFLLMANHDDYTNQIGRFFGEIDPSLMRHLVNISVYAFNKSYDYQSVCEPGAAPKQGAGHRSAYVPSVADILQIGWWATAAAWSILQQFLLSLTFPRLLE
UniProt P54289, 957-1103 partner limits assumed: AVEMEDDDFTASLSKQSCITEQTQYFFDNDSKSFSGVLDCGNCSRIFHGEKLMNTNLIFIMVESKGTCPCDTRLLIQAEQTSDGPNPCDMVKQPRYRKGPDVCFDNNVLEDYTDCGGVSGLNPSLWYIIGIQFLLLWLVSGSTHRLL

From patent US20210186970A1, “SELECTIVE CALCIUM CHANNEL ANTAGONISTS” (Northwestern University, priority 2011, published 2021) come the findings set out here.

Series [1] deals with Cav1.3 L-type Ca channels (Rattus norvegicus, UniProt P27732). The experiment in a line: FLIPR Fluo-8 calcium assay, Cav1.3 channel inhibition in HEK293 cells. It is filed as cell-based.
Series [2] has as its target Cav1.2 L-type Ca channels (Oryctolagus cuniculus, UniProt P15381).
Where [3] appears, read: read-out: IC50 (μM) Cav1.3, second library, FLIPR, HEK293, value (±SD).

As a reminder, the IC50 is the concentration at which inhibition is half-maximal. As to `O=C1CC(=O)N(C2CCCCC2)C(=O)N1CCc1ccc([N+](=O)[O-])cc1`, the IC50 in series [1] (setting [3]) was 8.9 µM; in series [2] it was 10.5 µM.

As to `COc1ccc(CCN2C(=O)CC(=O)N(C3CCCCC3)C2=O)cc1OC`, the IC50 in series [1] (setting [3]) came out at 32.5 µM; in series [2], 75.5 µM.

As to `CC(CN1C(=O)CC(=O)N(C2CCCCC2)C1=O)c1ccc(Cl)cc1` (stereo not drawn), the IC50 in series [1] (setting [3]) turned out to be 1.5 µM; in series [2], 52.9 µM.

For the compound `O=C1CC(=O)N(C2CCCCC2)C(=O)N1CCc1cccs1`, the results for the IC50 in series [1] (setting [3]) and in series [2] were 11.4 µM and 37.2 µM, respectively.

Take `COc1ccc(CCN2C(=O)CC(=O)N(C3CCCCC3)C2=O)cc1`: the IC50 in series [1] (setting [3]) stood at 9.4 µM; in series [2], 26.2 µM.

For `O=C1CC(=O)N([C@@H]2C[C@H]3CC[C@@H]2C3)C(=O)N1CCc1ccc(Cl)cc1` (relative stereo), the IC50 in series [1] (read-out: IC50 (μM) Cav1.3, third library, FLIPR, HEK293, value (±SD)) was found to be 2.8 µM; in series [2], 10.9 µM.

With `O=C1NCC(CCc2cccc(Cl)c2)C(=O)N1C1CCCCC1` (stereo not drawn), the “selectivity for Cav1.3 over Cav1.2” value in series [1] (ratio of IC50 values for the two cell lines) is listed as 4 fold. The IC50 in series [1] (read-out: IC50 with Cav1.3) stood at 0.15 µM.

With `CC(Cc1ccc(Cl)cc1)N1C(=O)CC(=O)N(C2CCCCC2)C1=O` (stereo not drawn), the IC50 worked out at 2.1 µM in series [1] (setting [3]) and 16.8 µM in series [2].

As to `O=C1CC(=O)N(C2CCCCC2)C(=O)N1CCc1ccc(Cl)cc1Cl`, the values for the IC50 in series [1] (setting [3]) and in series [2] were 1.5 µM and 40.3 µM, respectively.
